Measurements: ChEMBL document CHEMBL1127120, “Benzofuran based angiotensi II antagonists related to GR117289: Part II; amino acid amides” (Bioorg Med Chem Lett, 1993)

Protein sequences, listed by entry. Tags and fused reporters are not part of them.
UniProt P34976, whole entry: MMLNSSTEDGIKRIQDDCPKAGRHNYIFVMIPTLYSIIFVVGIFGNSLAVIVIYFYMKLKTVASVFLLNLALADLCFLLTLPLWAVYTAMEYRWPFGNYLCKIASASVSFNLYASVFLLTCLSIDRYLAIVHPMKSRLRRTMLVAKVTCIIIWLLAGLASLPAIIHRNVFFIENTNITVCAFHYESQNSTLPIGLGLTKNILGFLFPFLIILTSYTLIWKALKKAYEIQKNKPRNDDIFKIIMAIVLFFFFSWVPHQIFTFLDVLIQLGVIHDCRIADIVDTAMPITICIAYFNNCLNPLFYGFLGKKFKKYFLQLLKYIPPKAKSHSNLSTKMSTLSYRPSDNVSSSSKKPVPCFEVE

Target: Type-1 angiotensin II receptor (Oryctolagus cuniculus) (UniProt P34976)
Assay: Affinity for Angiotensin II receptor, type 1 as antagonism of angII contractile effect in rabbit isolated thoracic aorta
Type: functional, tissue-based

pKB: 9.8
SMILES: CCCCc1nc(Cl)c(C(=O)O)n1Cc1ccc2oc(-c3ccccc3-c3nnn[nH]3)c(Br)c2c1
